US12268683B2, “Compounds and methods for synergistic activation of M channels” (THE REGENTS OF THE UNIVERSITY OF CALIFORNIA, priority 2018, dated 2025)

What was measured:
Assay type in all cases: cell-based
[1] = molecular target: KCNQ2-W236L/KCNQ3-W265L (Homo sapiens, UniProt O43525+O43526, W236L/W265L); experiment: TEVC of double-mutant WL/WL KCNQ2/3 channels
Excerpt: (§1) cRNA transcripts encoding human KCNA1, KCNQ1, KCNQ2, KCNQ3, KCNQ4, or KCNQ5 were generated by in vitro transcription using the T7 polymerase message machine kit (Thermo Fisher Scientific), after vector linearization, from cDNA sub-cloned into plasmids incorporating X. laevis β-globin 5′ and 3′ UTRs flanking the coding region to enhance translation and cRNA stability. cRNA was quantified by spectrophotometry. Mutant cDNAs were generated by site-directed mutagenesis using a QuikChange kit according to manufacturer's protocol (Stratagene, San Diego, Calif.) and corresponding cRNAs prepared as above. Defolliculated stage V and VI X. laevis oocytes (Ecocyte Bioscience, Austin, Tex.) were injected with Kv channel a subunit cRNAs (10 ng total per oocyte). […]
(§2) TEVC recording was performed at room temperature with an OC-725C amplifier (Warner Instruments, Hamden, Conn.) and pClamp10.2 software (Molecular Devices, Sunnyvale, Calif.) 3-5 days after cRNA injection as described in the section above. […] Currents were recorded in response to pulses between −80 and +40 mV at 20 mV intervals, or a single pulse to +40 mV, from a holding potential of −80 mV, to yield current-voltage relationships, current magnitude, and for quantifying activation rate. […]

[2] = molecular target: KCNQ2 (Homo sapiens, UniProt O43526); experiment: TEVC of homomeric KCNQ2 expressed in Xenopus oocytes
Excerpt: as §1, §2

[3] = molecular target: KCNQ3* (KCNQ3-A315T) (Homo sapiens, UniProt O43525, A315T); experiment: TEVC of homomeric KCNQ3* expressed in Xenopus oocytes; conditions: −60 mV; read-out: EC50 of KCNQ3* activation
Excerpt: as §1, §2

[4] = molecular target: KCNQ2/3 (Homo sapiens, UniProt O43525+O43526); experiment: TEVC of heteromeric KCNQ2/3 channels expressed in Xenopus laevis oocytes
Excerpt: cRNA transcripts encoding human KCNA1, KCNQ1, KCNQ2, KCNQ3, KCNQ4, or KCNQ5 were generated by in vitro transcription using the T7 polymerase message machine kit (Thermo Fisher Scientific), after vector linearization, from cDNA sub-cloned into plasmids incorporating X. laevis β-globin 5′ and 3′ UTRs flanking the coding region to enhance translation and cRNA stability. cRNA was quantified by spectrophotometry. Mutant cDNAs were generated by site-directed mutagenesis using a QuikChange kit according to manufacturer's protocol (Stratagene, San Diego, Calif.) and corresponding cRNAs prepared as above. Defolliculated stage V and VI X. laevis oocytes (Ecocyte Bioscience, Austin, Tex.) were injected with Kv channel a subunit cRNAs (10 ng total per oocyte). Oocytes were incubated at 16° C. in Barth's saline solution (Ecocyte) containing penicillin and streptomycin, with daily washing, for 3-5 days prior to two-electrode voltage-clamp (TEVC) recording.
TEVC recording was performed at room temperature with an OC-725C amplifier (Warner Instruments, Hamden, Conn.) and pClamp10.2 software (Molecular Devices, Sunnyvale, Calif.) 3-5 days after cRNA injection as described in the section above. Oocytes were placed in a small-volume oocyte bath (Warner) and viewed with a dissection microscope. Chemicals were sourced from Sigma. Bath solution was (in mM): 96 NaCl, 4 KCl, 1 MgCl2, 1 CaCl2. 10 HEPES (pH 7.6). […] MTX (DMSO), sorbic acid (ethanol), and glutaconic acid (molecular grade H2O) were stored at −20° C. as 1 M stocks. Oleamide was stored as a 1 mM stock in ethanol at 4° C. Palmitic acid was conjugated with bovine serum albumin as a 1 mM stock and stored at −20° C. All compounds were diluted to working concentrations each experimental day. All compounds were introduced to the recording bath via gravity perfusion at a constant flow of 1 ml/min for 3 min prior to recording. Pipettes were of 1-2 MΩ resistance when filled with 3 M KCl. Currents were recorded in response to pulses between −80 and +40 mV at 20 mV intervals, or a single pulse to +40 mV, from a holding potential of −80 mV, to yield current-voltage relationships, current magnitude, and for quantifying activation rate. TEVC data analysis was performed with Clampfit10.2 (Molecular Devices) and Graphpad Prism software (GraphPad, San Diego, Calif., USA); values are stated as mean±SEM. […]
cRNA transcripts encoding human KCNQ2, KCNQ3, KCNQ4, KCNQ5 (Kv7.2-Kv7.5) were generated by in vitro transcription using the T7 polymerase mMessage mMachine kit (Thermo Fisher Scientific), after vector linearization, from cDNA sub-cloned into plasmids incorporating Xenopus laevis β-globin 5′ and 3′ UTRs flanking the coding region to enhance translation and cRNA stability. cRNA was quantified by spectrophotometry. […]

[5] = molecular target: KCNQ5 (Homo sapiens, UniProt Q9NR82); experiment: TEVC of homomeric KCNQ5 expressed in Xenopus oocytes
Excerpt: as §1, §2

[6] = molecular target: KCNQ4 (Homo sapiens, UniProt P56696); experiment: TEVC of homomeric KCNQ4 expressed in Xenopus oocytes; conditions: −60 mV; read-out: EC50 of KCNQ4 activation
Excerpt: as §1, §2

## CC(C)CC(=O)O [IVA, isovaleric acid]
[1]
  effect on WL/WL KCNQ2/3 (in words): did not increase
[2]; IVA, concentration not given
  shift of KCNQ2 activation V0.5: −9 mV
[2]; −60 mV, read-out: EC50 of KCNQ2 activation
  EC50: 340 nM
[3]
  EC50: 500 nM
[4]
  KCNQ2/3 current fold-increase: fivefold
  effect on KCNQ2/3 at low dose: negligible effects
  effect on voltage dependence of KCNQ2/3 activation, screen of M. oppositifolius leaf compounds: negative-shifted
  shift of KCNQ2/3 activation V0.5: −11 mV
[5]
  effect on KCNQ5 (in words): no effect
[6]
  EC50: 16200 nM
